Reference: patent publication US20070087988A1, “Hematopoietic progenitor kinase 1 for modulation of an immune response” (New York University, priority 2005, published 2007)

How the values were obtained:
T cells [1] = assay: T cell proliferation on anti-CD3/anti-CD28 TCR crosslinking, 3H-thymidine; assay type: cell-based, mouse; conditions: addition of exogenous IL-2
Experimental: Naïve T cells (2×10^5) were seeded onto a 96-well plate and incubated with 1 μg/ml anti-CD3 and anti-CD28 or 10 μg/ml ConA for three days in the presence or absence of 100 pM PGE2 and then pulsed with 1 μCi/well ^3H thymidine (MP Biomedicals, Irvine, Calif.) for 18 hours before harvesting.
T cells were negatively selected using the Pan T cell isolation kit (Miltenyi Biotech Inc., Auburn, Calif.). Isolated T cells were 97% pure, as assessed by anti CD3-FITC staining. 2×10^5 Naïve T cells were seeded on a 96-well plate and incubated with various dilutions of anti-CD3 and 1 μg/ml of anti-CD28 for 72 hours in the presence or absence of 1 nM PGE2 and then pulsed with 1 μCi/well ^3H thymidine (MP Biomedicals, Irvine, Calif.) for 18 hours before harvest.

T cells [2] = assay: Apoptosis of TCR-stimulated T cells, annexin V / 7AAD staining; assay type: cell-based, mouse; conditions: addition of exogenous IL-2
From the text: For measurement of apoptosis, HPK1^−/− and wild type T cells were stimulated as above, in the presence or absence of PGE2, and then stained with annexin V-PE and 7AAD.

Q: Which results are given for “IL-2: exogenous IL-2, T cell growth factor, added to wild type T cells”?
A: proliferative phenotype of wild type T cells (thymidine incorporation) (T cells [1]): only partially rescues; susceptibility of wild type T cells to apoptosis (T cells [2]): rescued
